Reference: patent US20260199297A1, “FERROPTOSIS INDUCERS TO TREAT CANCER” (The University of Toledo, priority 2022, published 2026)

System: 60 human cancer cell lines
Assay: NCI 60 human cancer cell line assay, single dose
Type: cell-based
Settings: single dose of 10 μM, 60 cell lines
Experimental: The cell lines used in this assay belonged to leukemia, non-small-cell lung cancer, colon cancer, CNS cancer, melanoma, ovarian cancer, renal cancer, prostate cancer, and breast cancer. The compounds were first tested at a single dose of 10 μM.

## C#Cc1nc(C2=C(C)C(O)CC2)cs1 (racemic) [CETZOLE 1, 3-(2-Ethynylthiazol-4-yl)-2-methylcyclopent-2-en-1-ol, reference compound]
  mean percentage growth: least cytotoxic
